Experiments:
[1] = rat jejunal perfusion, perfusate 0.1 mM; for plasma conc. (mean ± s.e.m): blood drawn after 90 min perfusion
pulmonary artery = details: continuous perfusion of 1 mg/mL for one min
Description: (§1) Each experiment was repeated at least three times. The mean responses before and after drug treatment were compared by means of Student's t test, with p<0.05, indicating significance. The contractile force of both pulmonary artery and vas deferences was elicited after continuous perfusion of dopamine (1 mg/mL) for one min.
(§2) Male guinea pigs (250-350 g) were stunned and bled. The vas deferences and pulmonary artery were isolated. A piece of the smooth muscle (about 1 mm wide and 7 mm long) was dissected. The isolated part was mounted vertically on an organ bath (1 mL capacity), kept at 35° C. and superfused with a physiological solution at a constant rate of about 2 mL /min (35° C.). The normal physiological solution had the following composition: NaCl (117 mM), KCl (5.9 mM), CaCl2 (2.4 mM), MgCl2 (1.2 mM), D-glucose (11.8 mM) and Tris 20 (pH 7.4 at 35° C.), aerated with 100% oxygen. Drugs tested were perfused for one min and then superfused with normal physiological solution or otherwise indicated. Tension was recorded isometrically by means of a Grass FT03 tranducer connected to a Grass model 7E polygraph or by a Gould UC2 transducer connected to a Gould 2200S recorder. Each experiment was repeated at least three times with different preparations.

vas deferences = details: continuous perfusion of 1 mg/mL for one min
Description: as §1, §2

[2] = 37° C., after 90 minutes of incubation, n=2
[3] = Single dose oral and intra-artery bioavailability study in rabbits; details: 10 mg/Kg
[4] = intra-artery (i.a.), six rabbits, mean ± s.e.m.
[5] = oral, six rabbits, mean ± s.e.m.

Substance	plasma conc. (mean ± s.e.m) [1]	contraction of pulmonary artery (resting tension) (pulmonary artery)	contraction of vas deferences (resting tension) (vas deferences)	fraction of compound remaining intact in rat intestinal mucosa suspension [2]	AUC [3, 4]	Cmax [3, 4]	t1/2 [3, 4]	bioavailability ([3]; oral, rabbits)	AUC [3, 5]	Cmax [3, 5]	t1/2 [3, 5]	tmax [3, 5]	plasma concentration, fold higher than that of L-dopa [1]
D-p-hydroxyphenylglycine-L-proline-L-dopa [compound 2d]	4.37 ± 0.45	no significant contraction	no significant contraction	94±0.03%	–	–	–	–	–	–	–	–	–
D-phenylglycine-L-dopa [compound 1a]	–	–	–	–	563.05 ± 107.06 µg·min/mL	43220 ± 8410 ng/mL	51 ± 26 min	76 (±24) %	484.24 ± 91.14 µg·min/mL	8290 ± 3390 ng/mL	61 ± 23 min	13 ± 5 min	–
D-phenylglycine-L-proline-L-dopa [2c]	84.66 ± 6.00	–	–	–	–	–	–	–	–	–	–	–	60-100 fold
